Measurements as given in patent US20250339531A1, “DUX4 POLYPEPTIDES AND NUCLEIC ACIDS FOR TREATING INFLAMMATORY AND AUTOIMMUNE CONDITIONS” (Fred Hutchinson Cancer Center, priority 2021, published 2025).

Tested on: proteins that co-immunoprecipitated with DUX4-CTD constructs expressed in MB135 myoblasts
Assay: LC-MS of proteins co-immunoprecipitated with DUX4-CTD (Table 1) and western validation
Assay type: binding, human
Design: key to 3. + IFNg + Dox longCTD / 3. + Dox longCTD / 4. mL1dL2 + Dox + IFNG: peptide-spectrum matches (PSMs) per protein
From the text: As an unbiased method to identify proteins that interact with the C-terminal region of DUX4, liquid chromatography mass spectroscopy (LC-MS) was used to identify proteins that co-immunoprecipitated with DUX4-CTD constructs expressed in MB135 myoblasts. In the first experiment, MB135iDUX4-CTD cells were used, either untreated, treated with doxycycline alone, or with both doxycycline and IFNG. In the second experiment, MB135iDUX4-CTD and MB135iDUX4mL1dL2 cells were used, both treated with doxycycline and IFNG, compared to these two cell lines untreated and combined as a control. Proteins with a minimum of 2 peptide spectrum matches (PSMs) in at least one sample that were identified in both experiments were assigned to one of ten categories (see Methods) to separate candidate interactors from other categories that might be co-purified because of obligate interactions (e.g., proteasome or ribosome) or might be less likely to be physiologically relevant (e.g., cytoskeletal proteins). Candidate interactors were then ranked based on the total PSMs for that protein across all samples.
Centrifugation at 2500 rcf at 4° C. for 5 min pelleted the nuclei, supernatant was discarded, and nuclei resuspended in 1 mL IP buffer pH 7.4 (25 mM Tris-HCl pH 7.5, 175 mM NaCl, 1 mM EDTA, 0.2% NP-40, 5% glycerol) and incubated for 1 hour at 4° C. with rotation then spun at 21000 rcf for 10 minutes at 4° C. to pellet insoluble debris. Protein concentration was determined using the Pierce BCA Protein Assay Kit (ThermoFisher, 23225). An equivalent amount of protein per sample was pre-cleared with Dynabeads Protein G (Invitrogen) bound to mouse IgG (Abcam #131368) for 1 hour at 4° C. with rotation. […]
For LC-MS, anti-FLAG immunoprecipitation was performed with beads cross-linked to the anti-FLAG antibody and the proteins competitively eluted with FLAG peptide. […] Proteomics data were analyzed using Proteome Discoverer 2.4 against a Uniprot human database that included common contaminants using Sequest HT and Percolator for scoring. […]

B1: Q14444 (protein, UniProt Q14444 1-709, looked up)
chain: MPSATSHSGSGSKSSGPPPPSGSSGSEAAAGAGAAAPASQHPATGTGAVQTEAMKQILGVIDKKLRNLEKKKGKLDDYQERMNKGERLNQDQLDAVSKYQEVTNNLEFAKELQRSFMALSQDIQKTIKKTARREQLMREEAEQKRLKTVLELQYVLDKLGDDEVRTDLKQGLNGVPILSEEELSLLDEFYKLVDPERDMSLRLNEQYEHASIHLWDLLEGKEKPVCGTTYKVLKEIVERVFQSNYFDSTHNHQNGLCEEEEAASAPAVEDQVPEAEPEPAEEYTEQSEVESTEYVNRQFMAETQFTSGEKEQVDEWTVETVEVVNSLQQQPQAASPSVPEPHSLTPVAQADPLVRRQRVQDLMAQMQGPYNFIQDSMLDFENQTLDPAIVSAQPMNPTQNMDMPQLVCPPVHSESRLAQPNQVPVQPEATQVPLVSSTSEGYTASQPLYQPSHATEQRPQKEPIDQIQATISLNTDQTTASSSLPAASQPQVFQAGTSKPLHSSGINVNAAPFQSMQTVFNMNAPVPPVNEPETLKQQNQYQASYNQSFSSQPHQVEQTELQQEQLQTVVGTYHGSPDQSHQVTGNHQQPPQQNTGFPRSNQPYYNSRGVSRGGSRGARGLMNGYRGPANGFRGGYDGYRPSFSNTPNSGYTQSQFSAPRDYSGYQRDGYQQNFKRGSGQSGPRGAPRGRGGPPRPNRGMPQMNTQQVN
modifications: full-length
- 3. + Dox longCTD (bait longCTD, experiment 3, Dox only): 5
- 3. + IFNg + Dox longCTD (bait longCTD, experiment 3, IFNg + Dox): 5
- SUM of PSMS (sum over all samples): 11
